# B1: Serine/threonine-protein phosphatase 5 (Homo sapiens), P53041 (protein)
# chain: MAMAEGERTECAEPPRDEPPADGALKRAEELKTQANDYFKAKDYENAIKFYSQAIELNPSNAIYYGNRSLAYLRTECYGYALGDATRAIELDKKYIKGYYRRAASNMALGKFRAALRDYETVVKVKPHDKDAKMKYQECNKIVKQKAFERAIAGDEHKRSVVDSLDIESMTIEDEYSGPKLEDGKVTISFMKELMQWYKDQKKLHRKCAYQILVQVKEVLSKLSTLVETTLKETEKITVCGDTHGQFYDLLNIFELNGLPSETNPYIFNGDFVDRGSFSVEVILTLFGFKLLYPDHFHLLRGNHETDNMNQIYGFEGEVKAKYTAQMYELFSEVFEWLPLAQCINGKVLIMHGGLFSEDGVTLDDIRKIERNRQPPDSGPMCDLLWSDPQPQNGRSISKRGVSCQFGPDVTKAFLEENNLDYIIRSHEVKAEGYEVAHGGRCVTVFSAPNYCDQMGNKASYIHLQGSDLRPQFHQFTAVPHPNVKPMAYANTLLQLGMM
# Substrate: N=c1oc2cc(F)cc(F)c2cc1C(N)=S
# Details: Homo sapiens; filed as activator; dose 60.0 µM, time 40.0 min
protein,measurement,value
B1,Km,20.1 mM
